Assays:
A549 = experiment: (§1) Cytotoxicity against human A549 cells after 48 to 72 hrs by MTT assay; assay type: ADME, cell-based; settings: a549, time 48-72 hrs
Outline: (§2)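 A549 lung carcinoma cells seeded at 2.5 × 10^5 per well, grown 24 h at 37 °C, then given two-fold serial dilutions from 50 μg/mL to 1.56 μg/mL and incubated a further 24 h at 37 °C. MTT read-out at 48 h and 72 h after compound addition. 5-fluorouracil as positive control, DMSO as negative control.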

HepG2 = settings: human
[1] = as §1; assay type: ADME, cell-based; settings: A549 cells, time 48-72 hrs; outline: as §2
[2] = Drug metabolism in rat liver microsomes at 10 uM preincubated with microsomes followed by NADPH addition and measured after 60 mins by LC-MS/MS analysis; assay type: ADME, Microsome; settings: read-out: Drug metabolism

Compound	CC50 (A549) [mM]	CC50 (HepG2) [mM]	CC50 [1] [mM]	metabolised at 1 h, 10 µM [2] [%]
O=C(O)c1cc(C(F)(F)F)ccc1Cc1ccc(Sc2ccc(Cl)c(Cl)c2)c([N+](=O)[O-])c1	14.8	3.41	–	–
O=C(O)c1ccc(Cl)cc1Cc1ccc(Sc2ccc(Cl)c(Cl)c2)c([N+](=O)[O-])c1	24	3.9	–	–
O=C(O)c1ccc(C(F)(F)F)cc1Cc1ccc(Sc2ccc(Cl)c(Cl)c2)c([N+](=O)[O-])c1	0.129	0.145	–	–
O=C(O)c1ccc(C(F)(F)F)cc1C(=O)c1ccc(Sc2ccc(Cl)c(Cl)c2)c([N+](=O)[O-])c1	–	0.387	18.4	–
NC(=O)N1c2ccccc2C=Cc2ccccc21 [CARBAMAZEPINE]	–	–	–	39.4

— ChEMBL document CHEMBL4706572, “Benzyl and benzoyl benzoic acid inhibitors of bacterial RNA polymerase-sigma factor interaction” (Eur J Med Chem, 2020)
